# Experimental data from ChEMBL document CHEMBL1152900, “Synthesis and evaluation of the antioxidant and anti-inflammatory activity of novel coumarin-3-aminoamides and their alpha-lipoic acid adducts” (Eur J Med Chem, 2009).
# Experiment: Antioxidant activity assessed as reduction of DPPH activity at 0.1 mM after 20 mins
# Assay type: functional
# Set-up: scale not given: the % may be the effect or the level left
# How it was run: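 DPPH at 0.05 mM final in absolute ethanol was mixed with test compounds in ethanol at 0.1 or 0.5 mM final, with ethanol as the control. After 20 and 60 min at room temperature, absorbance was read at 517 nm. At least triplicate.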
structure (smiles),measurement,value
CC(Cc1ccc(O)c(O)c1)C(C)Cc1ccc(O)c(O)c1 (stereo unspecified),Activity,81%
